Experimental data: patent US20240123081A1, “BRANCHED MOIETY FOR USE IN CONJUGATES” (priority 2019, published 2024)

System: MDA-MB-453 cells
Experiment: In vitro cell viability (Cell Titer-Glo Luminescent Cell Viability Assay)
Type: cell-based, Human
Conditions: 6 days, comparison in words, cell line taken from preceding sentence (MDA-MB-453)
Experimental: Human cancer cell lines SK-BR-3, BT-474, and MDA-MB-453 were seeded into white polystyrene tissue-culture treated 96-well plates (Costar) at a density of 3000 cells/well in RPMI +10% FBS (Invitrogen). On the following day, antibodies and ADCs were spiked into triplicate wells using an 8-point dose curve of 1:4 serial dilutions starting from 0.5 μg/mL. Cell viability was determined 6 days later using the Cell Titer-Glo Luminescent Cell Viability Assay kit (Promega) following the manufacturers protocol. Luminescence was measured using an EnVision 2104 Multilabel Reader (Perkin Elmer). Cell viability was calculated as a percentage of control untreated cells. Results of the in vitro cell viability assay are shown in FIG. 1 (SKBR3 (HER2+) 3000 cells/well) and FIG. 2 (MDA-MB-453 (HER2+) 3000 cells/wells), in which the symbols represent the following antibodies/conjugates: […]

Herceptin-19-O-vc-PAB-MMAE-SG3457
relative toxicity / potency compared with another conjugate (cell viability): equipotent to Herceptin-19-SG3457
